Target: human CD47 (human, UniProt Q08722 19-323)
Experiment: flow

Protein sequences, listed by entry. Tags and fused reporters are not part of them. Residues count along the entry.
UniProt Q08722, 19-323: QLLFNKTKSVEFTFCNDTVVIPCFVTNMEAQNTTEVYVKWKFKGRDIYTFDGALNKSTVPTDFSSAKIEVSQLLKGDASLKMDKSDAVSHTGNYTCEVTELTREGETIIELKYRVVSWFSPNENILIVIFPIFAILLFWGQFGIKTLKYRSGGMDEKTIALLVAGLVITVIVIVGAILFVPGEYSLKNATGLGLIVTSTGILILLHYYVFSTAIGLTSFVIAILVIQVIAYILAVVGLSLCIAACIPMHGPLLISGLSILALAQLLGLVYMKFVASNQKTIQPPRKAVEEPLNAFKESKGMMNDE

Binder	EC50
bispecific antibody LAG3-E-LN (bispecific antibody) heavy: not shown light: EVQLVESGGGLVQPGGSLRLSCAASGYTVSSYCMGWFRQAPGKGREGVSAIDSDGSVSYADSVKGRFTISKDNSKNTLYLQMNSLRAEDTAVYFCAADLCWVDQDQGEYNTWGQGTLVTVSSEPKSSDKTHTSPPSPEIVLTQSPATLSLSPGERATLSCRASENVGTYISWYQQKPGQAPRLLIYGASNRYTGIPARFSGSGSGTDFTLTISSLEPEDFAVYYCGESYGHLYTFGGGTKVEIKRTVAAPSVFIFPPSDEQLKSGTASVVCLLNNFYPREAKVQWKVDNALQSGNSQESVTEQDSKDSTYSLSSTLTLSKADYEKHKVYACEVTHQGLSSPVTKSFNRGEC	~4.07 nM
bispecific antibody LAG3-G15-LN (bispecific antibody) heavy: not shown light: EVQLVESGGGLVQPGGSLRLSCAASGYTVSSYCMGWFRQAPGKGREGVSAIDSDGSVSYADSVKGRFTISKDNSKNTLYLQMNSLRAEDTAVYFCAADLCWVDQDQGEYNTWGQGTLVTVSSGGGGSGGGGSGGGGSEIVLTQSPATLSLSPGERATLSCRASENVGTYISWYQQKPGQAPRLLIYGASNRYTGIPARFSGSGSGTDFTLTISSLEPEDFAVYYCGESYGHLYTFGGGTKVEIKRTVAAPSVFIFPPSDEQLKSGTASVVCLLNNFYPREAKVQWKVDNALQSGNSQESVTEQDSKDSTYSLSSTLTLSKADYEKHKVYACEVTHQGLSSPVTKSFNRGEC	3.38 nM

These reach a lower EC50. Values come first.

EC50	Binder
2.51 nM	bispecific antibody LAG3-G9-LN (bispecific antibody) heavy: not shown light: EVQLVESGGGLVQPGGSLRLSCAASGYTVSSYCMGWFRQAPGKGREGVSAIDSDGSVSYADSVKGRFTISKDNSKNTLYLQMNSLRAEDTAVYFCAADLCWVDQDQGEYNTWGQGTLVTVSSGGGGSGGGSEIVLTQSPATLSLSPGERATLSCRASENVGTYISWYQQKPGQAPRLLIYGASNRYTGIPARFSGSGSGTDFTLTISSLEPEDFAVYYCGESYGHLYTFGGGTKVEIKRTVAAPSVFIFPPSDEQLKSGTASVVCLLNNFYPREAKVQWKVDNALQSGNSQESVTEQDSKDSTYSLSSTLTLSKADYEKHKVYACEVTHQGLSSPVTKSFNRGEC
1.2 nM	bispecific antibody LAG3-E-LC (bispecific antibody) heavy: not shown light: EIVLTQSPATLSLSPGERATLSCRASENVGTYISWYQQKPGQAPRLLIYGASNRYTGIPARFSGSGSGTDFTLTISSLEPEDFAVYYCGESYGHLYTFGGGTKVEIKRTVAAPSVFIFPPSDEQLKSGTASVVCLLNNFYPREAKVQWKVDNALQSGNSQESVTEQDSKDSTYSLSSTLTLSKADYEKHKVYACEVTHQGLSSPVTKSFNRGECEPKSSDKTHTSPPSPEVQLVESGGGLVQPGGSLRLSCAASGYTVSSYCMGWFRQAPGKGREGVSAIDSDGSVSYADSVKGRFTISKDNSKNTLYLQMNSLRAEDTAVYFCAADLCWVDQDQGEYNTWGQGTLVTVSS

— patent publication US20220267436A1 (published 2022)
